According to ChEMBL document CHEMBL1137227, “Identification of a selective inverse agonist for the orphan nuclear receptor estrogen-related receptor alpha” (J Med Chem, 2004):
Calls of active or inactive are those of the source. No cut-off for these calls is given here.

Target: T1, Steroid hormone receptor ERR1 (Homo sapiens) (UniProt P11474)
T1 sequence (whole entry): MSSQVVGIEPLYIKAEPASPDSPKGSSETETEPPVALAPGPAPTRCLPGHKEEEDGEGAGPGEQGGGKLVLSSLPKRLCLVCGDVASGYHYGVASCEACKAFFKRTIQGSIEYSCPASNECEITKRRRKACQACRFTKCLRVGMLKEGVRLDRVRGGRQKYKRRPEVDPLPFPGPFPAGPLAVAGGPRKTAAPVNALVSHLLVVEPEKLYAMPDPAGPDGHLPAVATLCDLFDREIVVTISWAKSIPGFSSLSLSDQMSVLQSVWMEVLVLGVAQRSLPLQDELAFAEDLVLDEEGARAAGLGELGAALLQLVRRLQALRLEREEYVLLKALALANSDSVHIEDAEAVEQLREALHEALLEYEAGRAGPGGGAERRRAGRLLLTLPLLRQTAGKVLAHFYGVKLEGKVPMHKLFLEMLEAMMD
Details: 10 uM

inhibition	Structure (SMILES)
inactive	CCc1nnc(NC(=O)/C(C#N)=C/c2ccc(OCc3cc(C(F)(F)F)ccc3C(F)(F)F)c(OC)c2)s1
inactive	CCc1nnc(NC(=O)/C(C#N)=C/c2ccc(OCc3c(F)cccc3C(F)(F)F)c(OC)c2)s1
